In publication PMC10855908 (International Journal of Molecular Sciences, 2024):
In brackets after ≈: the same amount, converted by molar mass.

Legend:
[1] = tested on: Micrococcus luteus ATCC10240; test: MIC microtitration assay; type: cell-based
M. luteus ATCC10240 = test: Agar well diffusion; type: cell-based, Micrococcus luteus; details: Mueller–Hinton soft agar, 80 μL of enterocin at 200 μg/mL, 24 h 37 °C, dash = not active

Q: With `CC[C@H](C)[C@H](NC(=O)[C@H](Cc1c[nH]cn1)NC(=O)[C@H](CCCCN)NC(=O)[C@H](CCCCN)NC(=O)[C@@H](NC(=O)[C@H](Cc1c[nH]c2ccccc12)NC(=O)[C@H](CCC(=O)O)NC(=O)[C@@H](NC(=O)[C@@H](NC(=O)[C@H](CCCCN)NC(=O)[C@H](CC(N)=O)NC(=O)[C@@H](NC(=O)[C@H](C)NC(=O)[C@H](Cc1c[nH]c2ccccc12)NC(=O)CNC(=O)[C@H](CCC(=O)O)NC(=O)CNC(=O)[C@@H](NC(=O)[C@H](Cc1ccccc1)NC(=O)[C@H](CCC(N)=O)NC(=O)[C@H](CCSC)NC(=O)[C@@H](NC(=O)[C@H](CCC(N)=O)NC(=O)[C@H](CCCCN)NC(=O)[C@H](Cc1ccc(O)cc1)NC(=O)[C@H](Cc1ccc(O)cc1)NC(=O)[C@H](CCCCN)NC(=O)[C@H](CCCCN)NC(=O)[C@@H](NC(=O)[C@@H](NC(=O)[C@@H]1CCCN1C(=O)[C@H](Cc1c[nH]c2ccccc12)NC(=O)CNC(=O)[C@H](Cc1ccccc1)NC(=O)[C@H](CCCCN)NC(=O)[C@H](C)NC(=O)[C@@H](NC(=O)[C@H](CC(C)C)NC(=O)[C@H](CCCCN)NC(=O)[C@H](C)NC(=O)[C@@H](NC(=O)[C@H](C)NC(=O)CNC(=O)[C@@H](N)CCSC)[C@@H](C)CC)C(C)C)[C@@H](C)CC)C(C)C)[C@@H](C)CC)[C@@H](C)CC)[C@@H](C)CC)[C@@H](C)CC)[C@@H](C)CC)[C@@H](C)CC)C(=O)O` [Enterocin L50A] as the molecule, how does the MIC [1] read?
A: The MIC was 1.56 µg/mL (≈ 0.301 µM).

Q: And the Inhibition halos (M. luteus ATCC10240)?
A: The Inhibition halos was 20 mm.
